This is an account of results in patent US3989746A, “Substituted naphthyl anthranilic acids” (Ikeda Mohando Co., Ltd., priority 1972, dated 1976).

The nature of data set [1]: in vivo. Particulars: mouse, po. The procedure: With respect to the foregoing test compounds, the acute toxicity was examined by employing mice according to the following method.
Groups of male mice of the dd type having a body weight of 18 to 22 g, each, group consisting of 5 mice, were tested to determine the acute toxicity. The test compound was orally administered in a dosage indicated in Table 3a in the form suspended in 5% gum arabic liquor. The determination was conducted 7 days after the administration. Further, the LD50 values were calculated according to the method of Lichfield-Wilcoxon.

The nature of data set [2]: in vivo. Particulars: rat, po.

Regarding `Cc1cccc(Nc2ccccc2C(=O)O)c1C` [Compound M, mefenamic acid, reference compound], in the data set “in vivo [1]”, the 50% lethal dose (LD50) at 168 h turned out to be 1050 mg/kg. For the same molecule, the LD50 in the data set “in vivo [2]” came to 730 mg/kg.

Usually LD50 stands for the dose at which mortality reaches 50%. Low values mean greater toxicity, high ones lower toxicity.
